Data set [1] is described as follows: refractive index (Na D-line) (dimensionless). To be noted: 298.15 K; 101.33 kPa; Liquid; Standard Abbe refractometry.
For data set [2] the following is noted: 298.15 K; 101.33 kPa; Liquid.

Molecules are shown by their SMILES. ± gives the expanded uncertainty stated by the source.

As usually defined, the refractive index is the speed of light in vacuum divided by its phase velocity in the sample. By mass density is commonly meant mass per unit of volume. On to `CCCCOCCCC` [dibutyl ether], for which the refractive index in data set [1] was found to be 1.39668 ± 0.00075. Also, the mass density in data set [2] is recorded as 763.95 ± 0.75 kg/m3.

Source of the values: the NIST ThermoML archive (doi:10.1016/j.jct.2005.01.004).
